The source of these data is patent US20120010168A1, “Unique Dual-Action Therapeutics” (published 2012).

By UniProt entry, the sequences of proteins in these tests, tags left out. Residues count along the entry.
UniProt O42275, 24-633 limits assumed: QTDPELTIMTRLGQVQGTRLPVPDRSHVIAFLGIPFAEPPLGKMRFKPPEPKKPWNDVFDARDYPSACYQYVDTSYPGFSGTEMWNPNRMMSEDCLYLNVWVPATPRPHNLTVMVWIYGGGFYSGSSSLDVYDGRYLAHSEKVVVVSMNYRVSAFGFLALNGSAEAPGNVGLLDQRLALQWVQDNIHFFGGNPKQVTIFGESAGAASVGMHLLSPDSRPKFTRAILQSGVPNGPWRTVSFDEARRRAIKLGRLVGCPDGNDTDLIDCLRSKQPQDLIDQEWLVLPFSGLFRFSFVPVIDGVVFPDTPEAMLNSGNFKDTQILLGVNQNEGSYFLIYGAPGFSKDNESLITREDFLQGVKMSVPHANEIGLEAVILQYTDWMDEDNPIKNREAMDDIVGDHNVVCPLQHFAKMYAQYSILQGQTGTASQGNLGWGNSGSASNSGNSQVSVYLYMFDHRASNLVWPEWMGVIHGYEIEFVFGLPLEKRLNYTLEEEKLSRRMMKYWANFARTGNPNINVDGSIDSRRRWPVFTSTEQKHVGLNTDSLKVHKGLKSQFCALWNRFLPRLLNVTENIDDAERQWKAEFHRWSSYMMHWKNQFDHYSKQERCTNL

The target of series [1] is Acetyl cholinesterase (Type V-S from Electrophorus electricus) (Electrophorus electricus, UniProt O42275). Put plainly: Acetylcholinesterase inactivation and reactivation (Sephadex G-25, Ellman). The note with it: 30 min incubation with 52 μM inhibitor, then chromatography over Sephadex gel.
Series [2] in a line: Aqueous hydrolysis studies in PBS pH 7.4. Particulars: 37° C., methanol (up to 50%) co-solvent.
Series [3] can be described thus: Plasma hydrolysis studies. Particulars: 37° C., human plasma diluted to 80% with PBS (pH 7.4).
Series [4] addresses AChE (Electrophorus electricus, UniProt O42275). Put plainly: Kinetic inhibition studies (Lineweaver-Burk). The note with it: Lineweaver-Burk plot; substrate 1000 to 50 μM, inhibitor 1 to 100 μM.
Series [5] can be described thus: Chemical hydrolysis studies (aqueous potassium carbonate, HPLC). The note with it: 37° C., aqueous potassium carbonate (10 eq), 20% DMSO, after 2 hr.

`COc1ccc2cc([C@H](C)C(=O)OCCC(C)(C)C)ccc2c1`: the “% Enzyme Activity (AChE activity recovery after inactivation)” value (“% Enzyme Activity” for short) in series [1] was determined as 113%.
Consider `CC(C)(C)CCOC(=O)Cc1ccccc1Nc1c(Cl)cccc1Cl`, for which the “t1/2 (hr) in PBS (pH 7.4) buffer” value in series [2] is 105 hr. For the same compound, in series [1], the “% Enzyme Activity” value came to 95%.
Consider “[o-(2,6-dichloroanilino)phenyl]acetyl 3,3-dimethylbutyl carbonate”, for which, in series [2], the “t1/2 (hr) in PBS (pH 7.4) buffer” value amounted to 6.95 hr. The “t1/2 (hr) in diluted human plasma” value in series [3] came out at 5.93 h. Also, the “% Enzyme Activity” value in series [1] is reported as 95%.
Consider `CC(C)Cc1ccc(C(C)C(=O)OCc2ccc(OC(=O)OCCC(C)(C)C)cc2)cc1` (centres unmarked), for which the “t1/2 (hr) in PBS (pH 7.4) buffer” value in series [2] was 20.4 hr. The “t1/2 (hr) in diluted human plasma” value in series [3] was determined as 3.33 h. The “% Enzyme Activity” value in series [1] is 109%.
For the compound `CC(C)Cc1ccc(C(C)C(=O)OCCC(C)(C)C)cc1` (centres unmarked), the “type of inhibition of AChE” value in series [4] is “reversible inhibition”.
As for `COc1ccc2cc([C@H](C)C(=O)OCc3ccc(OC(=O)OCCC(C)(C)C)cc3)ccc2c1`, the “t1/2 (hr) in diluted human plasma” value in series [3] is 2.23 h. For the same compound, in series [1], the “% Enzyme Activity” value was 95%. For the same compound, the “type of inhibition of AChE” value in series [4] is reported as “reversible inhibition”. For the same compound, the “products released on chemical hydrolysis” value in series [5] is “release of both the NSAID Naproxen and the 4-hydroxybenzylalcohol”.
